{"source": "patent US20090239898A1", "about": "“FURTHER THERAPEUTIC USE OF ZOLPIDEM” (SCIENCOM LTD., priority 2003, published 2009)", "assay_type_in_all_cases": "in vivo, human", "key": {"[1]": {"tested_on": "patient who had suffered a stroke", "assay": "99mTc HMPAO Brain SPECT before and after zolpidem in a stroke patient (Example 1)", "settings": "1 hour after 10 mg zolpidem vs baseline", "description": "A patient was prescribed 10 mg zolpidem for treatment of their insomnia. They had suffered a stroke several years before and presented with left-sided paraplegia since the onset of their stroke. Their cognition was still normal but they had some aphasia and decreased proprioseption that was evident from their inability to use scissors with their right hand. The clinical and neurological features of the patient were unremarkable apart from the above. The patient was investigated by ^99mTc HMPAO Brain Spect before and after zolpidem application.\nTwo brain SPECT studies were completed on different days. The first study was completed in the normal baseline state and the second study was performed 1 hour after application of 10 mg zolpidem on the following day. The imaging was started 30 minutes after intravenous injection of 900 MBq ^99mTc HMPAO, using a dual head SOPHY DST XLi gamma camera. Acquisition parameters were 64 angular views over 3600 at 45 seconds per view. Ultra high resolution fanbeam collimation without zoom was used and a 20% symmetrical window over 140 KeV. The images were reconstructed using a Metz prefilter. Transaxial, sagital and coronal slices were constructed without attenuation or scatter correction. The images before and after application of zolpidem were assessed in comparative transaxial slices and in different segments of the brain."}, "[2]": {"tested_on": "patient after subarachnoid haemorrhage", "assay": "Brain SPECT before and after zolpidem after subarachnoid haemorrhage (Example 4)", "settings": "1 hour after 10 mg zolpidem"}, "[3]": {"tested_on": "patients with Spinocerebellar Ataxia Type 2", "assay": "99mTc HMPAO Brain SPECT in Spinocerebellar Ataxia Type 2 patients (Example 2)", "settings": "patient P2, after zolpidem"}}}
{"smiles": "Cc1ccc(-c2nc3ccc(C)cn3c2CC(=O)N(C)C)cc1", "note": "[zolpidem]", "values": [{"measurement": "area affected by the stroke (no tracer uptake)", "setting": "[1]", "result": "did not change"}, {"measurement": "cerebellar 99Tc HMPAO uptake", "setting": "[1]", "result": "normalised"}, {"measurement": "crossed cerebellar diaschisis", "setting": "[1]", "result": "reversed"}, {"measurement": "decreased tracer uptake in the left thalamus and medial frontal regions bilaterally", "setting": "[2]", "result": "improved"}, {"measurement": "decreased tracer uptake in the left thalamus and cerebellum", "setting": "[3]", "result": "normalized"}]}
